{
  "source": "paper PMC10974743",
  "about": "“Design, Synthesis, and Biological Evaluation of Novel Phenoxy Acetic Acid Derivatives as Selective COX-2 Inhibitors Coupled with Comprehensive Bio-Pharmacological Inquiry, Histopathological Profiling, and Toxicological Scrutiny” (Molecules, 2024)",
  "system": "paw tissue, carrageenan paw edema model",
  "assay": "Histopathological examination of paws, inflammatory cell infiltration score",
  "details": "vs carrageenan group, 5 hours",
  "data": [
    {"smiles": "Cc1ccc(-c2cc(C(F)(F)F)nn2-c2ccc(S(N)(=O)=O)cc2)cc1", "note": "[Celecoxib, celecoxib, reference compound]", "values": [
      {"measurement": "Reduction in inflammatory cell infiltration score", "value": 59.26, "unit": "%"}
    ]}
  ]
}
